How the values were obtained:
[1] = test system: acetic-acid induced chronic gastric ulcers; assay: Treatment of acetic-acid induced chronic gastric ulcers in rats; type: in vivo
Experimental: In this study and experiment, we studied the dose-effect relationship of the tested drug (the bioactive glass) by adopting the rat model of acetic-acid induced chronic gastric ulcers, and using hydrotalcite and omeprazole as the positive controls, so as to evaluate the effect of the bioactive glass in the treatment of chronic gastric ulcers.
After fasting for 24 hours, the rats were anesthetized and disinfected in a conventional way, and then was cut from the xiphoid down along the medioventral line to about 2 cm, so as to remove the stomach from the enterocoelia; 5 μl of 100% glacial acetic acid was injected by using a microsyringe into a position close to the muscular layer below the anterior wall serosa of the gastric antrum; when a translucent white spot with a diameter of about 3 mm appeared, the stomach was given back to the enterocoelia, and was enveloped in omentum majus; then, peritoneum, muscular layer and skin were sutured in this order.
Each drug was divided into 5 groups according to the administration method described above, namely, a model group and four groups with different doses of drugs. Each group of the drugs was administered to 6 to 8 […]. At the third day after the surgery, the treatment started by intragastrically administering drugs to the rats once a day for 7 days, wherein normal saline was administered in the same volume to the rats in the model group instead. The doses of the drugs in each group are listed as follows: Weibeisheng: 0 mg/kg, 0.1 mg/kg, 0.3 mg/kg, 1 mg/kg, and 3 mg/kg; omeprazole: 0 mg/kg, 0.3 mg/kg, 1 mg/kg, 3 mg/kg, and 10 mg/kg; hydrotalcite: 0 mg/kg, 1 mg/kg, 3 mg/kg, 10 mg/kg, and 30 mg/kg. The following indices were measured:
(1) ulcer index: the longest diameter in the length direction of an ulcer area and the longest diameter in the width direction perpendicular to the longest diameter in the length direction of the ulcer area were measured by a vernier caliper, and the product of the above two diameters is the ulcer index.
(2) ulcer inhibition rate: it represents the inhibition effect of a drug on the ulcer index. […]

[2] = test system: mouse stress-induced gastric ulcers; assay: Comparative experiment on inhibition of stress-induced gastric ulcers versus representative drugs; type: in vivo; details: mice
Experimental: The mice were divided into four groups, to which deionized water (the solvent control group), and three kinds of Weibeisheng with pH 7, 8 and 9 at a dose of 1 g/kg were respectively intragastrically administrated. Two hours later, the mice were subjected to stress in water at 21±1° C. for 15 hours, and were administered again two hours before the end of the stress. Then the animals were killed and autopsy was performed. […]
This experiment was conducted in the same way as described in Experiment Example 2 . […] After the ulcer index of each group was scored, the inhibition effect of each drug on mouse stress-induced gastric ulcers (namely, the maximum inhibition rate Emax) was calculated.
The bioactive glass formulations (also named Weibeisheng) used in the above Experiment Examples 2 and 5 were prepared from Production Example 1 and a Tris buffer solution in a certain ratio. The ratios used in these two Experiment Examples were determined according to the weight of the mouse and the amount of intragastric administration.

hydrotalcite
therapeutic effect on chronic gastric ulcers [1]: 38%
Emax (maximum inhibition rate) ([1]; intragastric once a day for 7 days): 37.8 ± 5.6%
ED50 (median effective dose) ([1]; intragastric once a day for 7 days, ulcer inhibition rate): 1.0 mg/kg
inhibition of occurrence of ulcers ([2]; four doses per drug): can inhibit occurrence of ulcers and are dose-dependent
Emax (% inhibition rate) ([2]; intragastric, stress in water 15 hours): 43.7 % inhibition rate

Reference: patent US9669054B2, “pH buffered bioactive glass, and its preparation process and use” (CHANGZHOU BIO-SHENG TECHNOLOGY CO., LTD., priority 2011, dated 2017)
